The structures appear in SMILES notation. pIC50: −log10 of the molar value.
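Further: biochemical JAK kinase assay with HTRF detection.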

The chains behind the UniProt entries cited, without tags or fusion partners. Residues count along the entry.
UniProt O60674, 849-1124: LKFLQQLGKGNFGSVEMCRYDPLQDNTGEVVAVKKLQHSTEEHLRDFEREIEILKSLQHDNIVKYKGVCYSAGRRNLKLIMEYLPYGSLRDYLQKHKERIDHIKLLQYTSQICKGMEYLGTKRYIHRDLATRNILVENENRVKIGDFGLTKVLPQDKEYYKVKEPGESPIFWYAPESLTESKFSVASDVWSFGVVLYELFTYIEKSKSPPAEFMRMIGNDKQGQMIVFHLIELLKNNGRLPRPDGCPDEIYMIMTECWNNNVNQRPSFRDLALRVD

For the test, the target named is JAK2 (recombinant purified GST-tagged catalytic domain) (Homo sapiens (Human), UniProt O60674). Put plainly: biochemical.
As to `N#Cc1ccc(Nc2nn([C@H]3CC[C@H](NCC(F)F)C[C@@H]3C#N)cc2C(N)=O)cc1` (single isomer, unassigned) [Example 28-116, 1-{(1S,2S,4S or 1R,2R,4R)-2-cyano-4-[(2,2-difluoroethyl)amino]cyclohexyl}-3-[(4-cyanophenyl)amino]-1H-pyrazole-4-carboxamide], the pIC50 was 8.05.
Consider `CN(C)[C@H]1CC[C@H](n2cc(C(N)=O)c(Nc3ccc(F)cc3)n2)[C@@H](C#N)C1` (single isomer, unassigned) [Example 28-129, 1-[(1S,2S,4S or 1R,2R,4R)-2-cyano-4-(dimethylamino)cyclohexyl]-3-[(4-fluorophenyl)amino]-1H-pyrazole-4-carboxamide], for which the pIC50 was 6.21.
As to `N#C[C@H]1C[C@H](N2CC(O)C2)CC[C@@H]1n1cc(C(N)=O)c(Nc2ccc(S(=O)(=O)C(F)(F)F)cc2)n1` (single isomer, unassigned) [Example 28-150, 1-[(1S,2S,4R or 1R,2R,4S)-2-cyano-4-(3-hydroxyazetidin-1-yl)cyclohexyl]-3-({4-[(trifluoro-methyl)sulfonyl]phenyl}amino)-1H-pyrazole-4-carboxamide], the pIC50 was 8.70.
With `N#C[C@H]1C[C@@H](N2CC(O)C2)CC[C@@H]1n1cc(C(N)=O)c(Nc2ccc(S(=O)(=O)C(F)(F)F)cc2)n1` (single isomer, unassigned) [Example 28-151, 1-[(1S,2S,4S or 1R,2R,4R)-2-cyano-4-(3-hydroxyazetidin-1-yl)cyclohexyl]-3-({4-[(trifluoro-methyl)sulfonyl]phenyl}amino)-1H-pyrazole-4-carboxamide], the negative logarithm of the IC50 (pIC50) is 9.00.
Regarding `N#C[C@H]1CC(NC2COC2)CC[C@@H]1n1cc(C(N)=O)c(Nc2ccc(S(=O)(=O)C(F)(F)F)cc2)n1` (single isomer, unassigned) [Example 28-155, 1-[(1S,2S or 1R,2R)-2-cyano-4-(oxetan-3-ylamino)cyclohexyl]-3-({4-[(trifluoromethyl)sulfonyl]phen-yl}amino)-1H-pyrazole-4-carboxamide], the pIC50 is 8.52.
Next, `CN(CCC(F)(F)F)[C@@H]1CC[C@H](n2cc(C(N)=O)c(Nc3ccc(S(=O)(=O)C(F)(F)F)cc3)n2)[C@@H](C#N)C1` (single isomer, unassigned) [Example 28-170, 1-{(1S,2S,4R or 1R,2R,4S)-2-cyano-4-[methyl(3,3,3-trifluoropropyl)amino]cyclohexyl}-3-({4-[(trifluoromethyl)sulfonyl]phen-yl]amino)-1H-pyrazole-4-carboxamide]: 6.74; `CN(CCC(F)(F)F)[C@H]1CC[C@H](n2cc(C(N)=O)c(Nc3ccc(S(=O)(=O)C(F)(F)F)cc3)n2)[C@@H](C#N)C1` (single isomer, unassigned) [Example 28-171, 1-{(1S,2S,4S or 1R,2R,4R)-2-cyano-4-[methyl(3,3,3-tri-fluoropropyl)amino]cyclohexyl}-3-({4-[(trifluoromethyl)sulfonyl]phen-yl}amino)-1H-pyrazole-4-carboxamide]: 7.51; `CC(C)N[C@H]1CC[C@H](n2cc(C(N)=O)c(Nc3ccc(S(=O)(=O)C(F)(F)F)cc3)n2)[C@@H](C#N)C1` (single isomer, unassigned) [Example 28-174, 1-{(1S,2S,4S or 1R,2R,4R)-2-cyano-4-[(1-methylethyl)amino]cyclohexy}-3-({4-[(trifluoro-methyl)sulfonyl]phenyl}amino)-1H-pyrazole-4-carboxamide]: 8.10.
Take `CC(C)N[C@@H]1CC[C@H](n2cc(C(N)=O)c(Nc3ccc(S(=O)(=O)C(F)(F)F)cc3)n2)[C@@H](C#N)C1` (single isomer, unassigned) [Example 28-175, 1-{(1S,2S,4R or 1R,2R,4S)-2-cyano-4-[(1-methylethyl)amino]cyclohexyl}-3-({4-[(trifluoro-methyl)sulfonyl]phenyl}amino)-1H-pyrazole-4-carboxamide]: the negative logarithm of the IC50 (pIC50) was 7.72.

Values taken from patent US8962608B2, “Cycloalkylnitrile pyrazole carboxamides as janus kinase inhibitors” (Merck Sharp & Dohme Corp., priority 2011, dated 2015).
